The source of these data is US20230271954A1 (Gossamer Bio Services, Inc., priority 2020, published 2023).

Protein sequences, listed by entry. Tags and fused reporters are not part of them. Residues count along the entry.
UniProt P23743, whole entry: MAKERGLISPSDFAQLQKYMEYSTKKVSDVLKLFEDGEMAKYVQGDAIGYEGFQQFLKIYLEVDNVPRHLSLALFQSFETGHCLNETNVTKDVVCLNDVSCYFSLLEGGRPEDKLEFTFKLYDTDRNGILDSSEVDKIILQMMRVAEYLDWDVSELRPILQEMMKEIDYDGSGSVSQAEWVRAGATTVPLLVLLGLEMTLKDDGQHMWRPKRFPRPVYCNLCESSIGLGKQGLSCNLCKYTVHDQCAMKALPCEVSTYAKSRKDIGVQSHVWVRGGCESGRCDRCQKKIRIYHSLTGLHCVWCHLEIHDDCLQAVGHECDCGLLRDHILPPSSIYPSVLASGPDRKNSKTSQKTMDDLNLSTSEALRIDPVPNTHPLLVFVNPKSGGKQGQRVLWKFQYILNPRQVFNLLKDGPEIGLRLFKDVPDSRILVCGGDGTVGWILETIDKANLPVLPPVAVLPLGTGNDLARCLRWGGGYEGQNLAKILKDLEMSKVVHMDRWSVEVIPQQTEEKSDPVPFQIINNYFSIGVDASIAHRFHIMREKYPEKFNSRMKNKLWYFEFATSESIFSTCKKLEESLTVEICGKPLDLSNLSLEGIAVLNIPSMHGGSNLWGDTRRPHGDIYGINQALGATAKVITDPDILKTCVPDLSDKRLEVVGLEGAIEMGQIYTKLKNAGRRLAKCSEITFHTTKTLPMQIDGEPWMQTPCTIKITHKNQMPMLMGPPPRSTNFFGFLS
UniProt Q13574, 1-929 isoform 4: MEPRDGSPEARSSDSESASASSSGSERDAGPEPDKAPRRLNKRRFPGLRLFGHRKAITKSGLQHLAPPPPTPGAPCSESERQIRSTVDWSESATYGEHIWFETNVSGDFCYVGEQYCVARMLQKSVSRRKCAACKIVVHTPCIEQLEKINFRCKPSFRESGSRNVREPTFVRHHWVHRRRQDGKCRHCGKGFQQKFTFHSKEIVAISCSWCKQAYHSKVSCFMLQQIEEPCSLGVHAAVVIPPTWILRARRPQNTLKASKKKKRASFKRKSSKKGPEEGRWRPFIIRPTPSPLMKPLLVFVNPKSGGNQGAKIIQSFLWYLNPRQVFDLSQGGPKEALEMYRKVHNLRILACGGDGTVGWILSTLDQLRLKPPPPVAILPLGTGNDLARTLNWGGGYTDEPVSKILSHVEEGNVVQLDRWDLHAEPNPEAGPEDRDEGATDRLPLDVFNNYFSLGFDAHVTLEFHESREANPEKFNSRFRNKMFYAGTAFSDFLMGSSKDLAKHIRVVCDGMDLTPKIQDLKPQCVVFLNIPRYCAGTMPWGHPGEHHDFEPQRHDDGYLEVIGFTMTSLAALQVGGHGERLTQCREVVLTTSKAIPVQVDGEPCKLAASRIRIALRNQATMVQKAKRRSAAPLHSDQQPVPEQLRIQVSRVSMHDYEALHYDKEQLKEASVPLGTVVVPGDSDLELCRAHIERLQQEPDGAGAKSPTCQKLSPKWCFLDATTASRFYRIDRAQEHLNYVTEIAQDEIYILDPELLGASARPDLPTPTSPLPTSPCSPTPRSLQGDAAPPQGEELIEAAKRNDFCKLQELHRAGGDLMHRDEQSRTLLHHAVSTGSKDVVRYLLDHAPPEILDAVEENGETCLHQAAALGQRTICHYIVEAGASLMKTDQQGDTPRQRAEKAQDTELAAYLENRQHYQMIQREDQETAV

One test has as its target DGKα (Homo sapiens, UniProt P23743). In words: DGKα biochemical assay (ADP-Glo). The settings on record: read-out: DGK α IC50. As for the experimental part:
(§1) Compounds of the present invention were prepared into 10 mM DMSO solution and 10 nL of stock was transferred into 384 plates (Optiplate 384 plate) using Echo550. DMSO was used as high control, and ATP substrate buffer was used as a low control. A 1× enzyme assay buffer was prepared (Hepes, pH 7.0 25 mM, BSA 0.05%, Triton-X100 0.002%, CaCl2) 1 μM, MgCl2 10 mM, DTT 2 mM). The enzyme assay was performed by diluting enzyme DGKα (1 μg/μL DGKα, Carna12-101, SEQ ID NO: 3) or DGKζ (1μ/μL DGKζ, Carna 12-110, SEQ ID NO: 4) using 1× assay buffer. OAG (1-oleoyl-2-acetyl-sn-glycerol, 25 mg/ml, Avanti 8001000) and PS (10 mg/ml, Avanti 840032P) were mixed at the ratio of 1:2. A 1× substrate solution was prepared with 1× assay buffer by 100-fold dilution. The substrate solution was sonicated on ice for 1 min. The pure ATP was added to the substrate solution (DGKα:400 μM). 5 μL of the enzyme solution were added to the 384 well plate, and the plate was spun for 1 min at 1000 rpm and incubated for 30 mins at RT. 5 μL of 1× substrate solution were added to the 384 well plate, the plate was spun and then incubated for 45 mins at RT. 10 μL ADP-Glo […] was added to stop the assay. After 60 mins at RT, 20 μL ADP-Glo Detection buffer was added as the final step. Plate was read after 45 min incubation at RT.
(§2) Data analysis was performed by calculating the […] using following the formula:
(§3) [formula] • High control (Hc): DMSO/DGKα(DGKζ)/Substrate/ATP/ADP-Glo • Low Control (Lc): ATP/ADP-Glo

The target in another test is DGKζ (Homo sapiens, UniProt Q13574). In words: DGKζ biochemical assay (ADP-Glo). The settings on record: read-out: DGK ζ IC50. How it is done: as §1, §2, §3
A general note: ADP-Glo turns the ADP formed in a reaction into a luminescent signal.

Take `COc1cc(OC)cc(N(CC2CC2)[C@H]2CC[C@H](N(C)c3c(C#N)c(=O)n(C)c4ccc(C#N)nc34)CC2)c1`: the IC50 (in general, the midpoint of a concentration-inhibition curve) is more than 1000 nM at DGKα and 100 to 1000 nM at DGKζ.

For the compound `Cn1c(=O)c(C#N)c(N(C)[C@H]2CC[C@@H](N(CC3CC3)c3ccc(F)c(F)c3)CC2)c2nc(Cl)ccc21`, the figures for the IC50 at DGKα and at DGKζ were less than 10 nM and 100 to 1000 nM, respectively.

For the compound `COc1cc(N(CC2CC2)[C@H]2CC[C@@H](N(C)c3c(C#N)c(=O)n(C)c4ccc(C#N)nc34)CC2)cc(F)c1F`, the IC50 is more than 1000 nM at DGKα and 10 to 100 nM on DGKζ.
